Values quoted from earlier work as cited in article PMC5306082, “Physiologically based kinetic modeling of the bioactivation of myristicin” (Archives of Toxicology, 2016).
Like-named read-outs stand apart in the source and are kept apart here.

Legend:
[1] = tested on: male rats; conditions: ref National Toxicology [2000], cited from earlier work
[2] = tested on: freshly isolated rat hepatocytes in primary culture; conditions: 10^−6 to 10^−3 M; ref Howes et al. [1990]; cited from earlier work
[3] = tested on: rats or mice; conditions: chronic oral exposure to high doses, or male CD-1 mice preweaning; ref Borchert et al. [1973]; Drinkwater et al. [1976]; National Toxicology [2000]; cited from earlier work

## C=CCc1ccc(OC)c(OC)c1 [methyleugenol]
[1]; 37 mg methyleugenol/kg bw per day
  liver tumor frequency: 3/50
[1]; 75 mg methyleugenol/kg bw per day
  liver tumor frequency: 14/50
[1]; 150 mg methyleugenol/kg bw per day
  liver tumor frequency: 25/50
[2]
  cytotoxicity: cytotoxicity
[3]
  induction of hepatic tumors: induce hepatic tumors
